The numbers were not newly measured in patent US20070199084A1, “Ubiquitination of Membrane Transporters” (VANDERBILT UNIVERSITY, priority 2005, published 2007), which cites them from elsewhere.

Chains of the proteins cited; added tags and fusions are not shown. Residues count along the entry.
UniProt A0A8I3S5A0, 1-617: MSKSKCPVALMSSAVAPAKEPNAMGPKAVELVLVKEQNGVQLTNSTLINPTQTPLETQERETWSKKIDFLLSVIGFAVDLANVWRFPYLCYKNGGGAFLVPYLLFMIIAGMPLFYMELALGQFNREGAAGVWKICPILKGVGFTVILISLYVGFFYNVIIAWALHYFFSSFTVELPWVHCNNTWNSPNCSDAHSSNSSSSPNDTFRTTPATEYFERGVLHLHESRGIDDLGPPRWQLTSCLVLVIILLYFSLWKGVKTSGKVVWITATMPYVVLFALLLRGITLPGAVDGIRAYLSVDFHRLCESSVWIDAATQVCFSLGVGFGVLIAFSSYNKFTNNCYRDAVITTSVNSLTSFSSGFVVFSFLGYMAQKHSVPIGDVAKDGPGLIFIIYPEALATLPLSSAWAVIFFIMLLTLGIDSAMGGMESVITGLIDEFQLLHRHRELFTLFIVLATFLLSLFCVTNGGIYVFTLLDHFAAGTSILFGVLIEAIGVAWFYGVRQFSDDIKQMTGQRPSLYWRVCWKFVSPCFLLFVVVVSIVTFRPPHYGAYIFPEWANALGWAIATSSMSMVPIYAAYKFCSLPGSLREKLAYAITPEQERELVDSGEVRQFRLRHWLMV

The series concerns the target T1, dopamine transporter (Canis lupus familiaris, UniProt A0A8I3S5A0).
T1 construct: digitonin-solubilized dopamine transporters from dog caudate nucleus; from tissue; host or cells: dog caudate nucleus, digitonin-solubilized extract
To be noted: digitonin-solubilized extract of dog caudate; cited from earlier work.

(−)-cocaine: the “inhibition of soluble [3H]WIN 35,428 binding (competition studies)” value is on record as “strongly”.
